In patent US20160271155A1, “Vitamin Formulations” (NESTEC S.A., priority 2013, published 2016):

Details: for Solubility: HPLC-UV
[1] = Methanol/Ethanol/Acetone, concentration prepared 5.31 mg/mL
[2] = Oil/Petroleum ether, concentration prepared 8.09 mg/mL
[3] = Water, concentration prepared 1.06 mg/mL (free acid), 56.53 mg/mL (Na2 salt)

| Substance | Solubility (appearance) [1] | Solubility [1] | Solubility (appearance) [2] | Solubility [2] | Solubility (appearance) [3] | Solubility [3] |
| --- | --- | --- | --- | --- | --- | --- |
| 5-methylfolate [L-5-MTHF Free acid] | Suspension | <0.0016 mg/mL; | Suspension | <0.0016 mg/mL; | Suspension | <0.0016 mg/mL; |
| 5-methylfolate [L-5-MTHF Na2 Salt] |  |  |  |  | Completely | >56.53 mg/mL |

Read-outs that look alike come from different tables or passages of the source.
